Biological target: 5-hydroxytryptamine receptor 2A (Rattus norvegicus, UniProt P14842)
Assay: Compound was tested for the inhibition of [3H]ketanserin binding to 5-hydroxytryptamine 2A receptor
Outline: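 Radioligand displacement on rat cortical membranes using [3H]ketanserin (1.0 nM), with methysergide as the reference compound. IC50 derived from six test concentrations, each in triplicate, in one experiment. Run at an external screening laboratory.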

Amino acid sequences for entries named in this document (tags omitted).
UniProt P14842, whole entry: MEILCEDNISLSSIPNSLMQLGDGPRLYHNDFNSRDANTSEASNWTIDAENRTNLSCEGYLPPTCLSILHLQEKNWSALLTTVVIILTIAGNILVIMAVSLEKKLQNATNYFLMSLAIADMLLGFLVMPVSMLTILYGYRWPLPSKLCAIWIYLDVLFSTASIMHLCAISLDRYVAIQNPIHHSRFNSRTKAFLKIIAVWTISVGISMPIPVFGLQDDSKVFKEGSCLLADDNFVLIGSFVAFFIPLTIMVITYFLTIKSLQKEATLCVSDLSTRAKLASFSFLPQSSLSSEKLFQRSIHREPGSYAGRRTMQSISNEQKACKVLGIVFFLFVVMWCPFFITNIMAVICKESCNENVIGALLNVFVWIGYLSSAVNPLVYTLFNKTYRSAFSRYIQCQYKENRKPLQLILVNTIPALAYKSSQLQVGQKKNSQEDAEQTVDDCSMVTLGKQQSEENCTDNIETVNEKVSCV

IC50: 17 nM
Structure (SMILES): O=c1n(CCCN2CCN(c3cccc(Cl)c3)CC2)nc2ccccn12 [TRAZODONE]
